Target: integrin αvβ6 on DX3puroβ6 cells (UniProt P06756 31-1048; P18564 22-788)
Conditions: one partner purified

## VGDLTYLKKKVART [peptide 1i, VGDLTYLKK(FB)KVART]
  DX3puroβ6/DX3puro binding selectivity ratio: 3.1 ± 0.8 :1

Reference: PMC6359284, “Identification, Characterization, and Optimization of Integrin αvβ6-Targeting Peptides from a One-Bead One-Compound (OBOC) Library: Towards the Development of Positron Emission Tomography (PET) Imaging Agents” (Molecules, 2019)
